Literature values, collected in article PMC10218007, “Potential Clinically Relevant Effects of Sialylation on Human Serum AAG-Drug Interactions Assessed by Isothermal Titration Calorimetry: Insight into Pharmacoglycomics?” (International Journal of Molecular Sciences, 2023).

Assays:
[1] = usual therapeutic trough plasma level; ref 46 lidocaine, 47 diltiazem, 48 clindamycin, 49 warfarin; cited from earlier work
AAG+s = conditions: log Ka = log (1/KD), KD in M; ref (2) lidocaine, (3) warfarin, (4) clindamycin; cited from earlier work

In the case of clindamycin phosphate, the Ctrough [1] is listed as 1390 nM and the “Reference AAG+s log KA” value (AAG+s) is listed as 6.03.
